Experimental findings from PubChem BioAssay AID1948 (National Center for Advancing Translational Sciences (NCATS), 2009) are described below.

The entries are a selection whose mix differs from that of the whole data set. Some results for these compounds are left out of this collection, so the calls shown say nothing about other tests. The source made the active and inactive calls. Calls follow the shape of the dose curve; as a rule, active = well fitted activation curve with a large enough effect; inconclusive = small, poorly fitted or top-dose-only effect; inactive = no such curve, though single readings can be large or run the other way.

The nature of the assay: qHTS Assay for Compounds that Induce Erasure of Genomic Imprints.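 Also: 0% = negative control wells on the plate.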 The settings on record: mouse ES Peg3-LacZ reporter, beta-gal luminescence, 40 h; at 10.9 µM unless noted.
For the compound `CN1CC[C@H](OC(=O)[C@](O)(c2ccccc2)C2CCCC2)C1`, the activity change, positive = activation was inactive: -9.79%.

With `O=C(OC1CN2CCC1CC2)C(CO)(c1ccccc1)c1ccccc1` (stereo unspecified), the activity change, positive = activation was inactive: -13% [at 60.7 µM].

Turning to `COc1cccc(C(=O)NCC2(N3CCOCC3)CCCCC2)c1`, the activity change, positive = activation was inactive: 13%.

For the compound `CN1CCC[C@H](OC(=O)[C@](O)(c2ccccc2)C2CCCC2)C1`, the activity change, positive = activation is inactive: -8.26%.

As for `CC(C)COc1ccc(C(=O)NCC2(N(C)C)CCCCC2)cc1`, the activity change, positive = activation was inactive: -23.1%.

Consider `C=C(C)C#C[C@@](O)(C(=O)OC1CCN(C)CC1)c1ccccc1`, for which the activity change, positive = activation was inactive: -6.49%.

Take `Cc1cccc(C(=O)NCC2(N(C)C)CCCCC2)c1`: the activity change, positive = activation was inactive: -14.4%.

On to `COc1cc(C(=O)NCC2(N(C)C)CCCCC2)cc(OC)c1OC`, for which the activity change, positive = activation is inactive: 18.8%.

In the case of `CN(C)c1cccc(C(=O)NCC2(N(C)C)CCCCC2)c1`, the activity change, positive = activation is inactive: -4.22% [at 60.7 µM].

`CC(C)Oc1ccc(C(=O)NCC2(N(C)C)CCCCC2)cc1`: the activity change, positive = activation is inactive: -13.1%.

For `COc1ccc(C(=O)NCC2(N(C)C)CCCCC2)cc1Cl`, the activity change, positive = activation is inactive: -16.9%.

Take `CN(C)C1(CNC(=O)c2ccccc2[N+](=O)[O-])CCCCC1`: the activity change, positive = activation is inactive: -10.9%.

`CCCCOc1ccccc1C(=O)NCC1(N(C)C)CCCCC1`: the activity change, positive = activation is inactive: -21.3%.

In the case of `CCOc1cccc(C(=O)NCC2(N(C)C)CCCCC2)c1`, the activity change, positive = activation was inactive: -6.54%.

On to `CN(C)C1(CNC(=O)c2cccc(Cl)c2)CCCCC1`, for which the activity change, positive = activation is inactive: -13.2%.

In the case of `CN(C)C1(CNC(=O)c2ccccc2F)CCCCC1`, the activity change, positive = activation is inactive: -11.5%.
